AlphaSeq binding of Ab-14 heavy chain variants to a spike HR2 peptide

Data: MIT Lincoln Laboratory AlphaSeq set, Li et al. 2023, doi:10.1038/s41467-023-39022-2, as distributed in FLAb.

Target peptide (SARS-CoV-2 spike, HR2 region): PDVDLGDISGINAS

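These sequences belong to a second round, designed from the earlier measurements on random variants of the parent. Their group label is 14H_En_Gibbs (En: ensemble of fine-tuned language models; Gibbs: Gibbs sampling). Affinity was read by AlphaSeq, a pooled yeast mating assay with surface-displayed partners. After mating in shaken culture at 30 °C for 16 h, diploids were selected and their barcode pairs sequenced. A regression on co-assayed BCL2-family reference pairs converts the normalised counts of each replicate to an apparent Kd. There are six technical replicates.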

The variants keep the light chain, the linker and the frameworks of Ab-14 (scFv order VH, a 15-residue (Gly4Ser)3 linker, VL).
VH: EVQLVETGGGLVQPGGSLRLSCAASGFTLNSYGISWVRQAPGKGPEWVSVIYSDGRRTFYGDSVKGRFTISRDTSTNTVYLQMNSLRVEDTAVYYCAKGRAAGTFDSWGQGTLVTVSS
VL: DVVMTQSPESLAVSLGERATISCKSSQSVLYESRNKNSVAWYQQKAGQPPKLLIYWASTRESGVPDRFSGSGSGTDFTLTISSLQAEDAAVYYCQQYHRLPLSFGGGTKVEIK

Each variant is given by its three heavy chain CDRs, as the data file delimits them; those of the parent are GFTLNSYGIS, VIYSDGRRTFYGDSVK, GRAAGTFDS. The read-out is the apparent dissociation constant on a log10 scale (nM): the lower, the stronger. A pair that was not seen in that replicate is written "nd"; this usually means weak binding, but a binder can also be missed.

| CDR-H1 | CDR-H2 | CDR-H3 | replicates, log10 nM | signal with controls |
|---|---|---|---|---|
| GADINEYGIS | VIYADGSRTVYADTVK | GHHGGIFDS | nd / nd / nd / nd / nd / nd | 0 of 18 |
| GFNLDEYGIS | VIYADGQRKVYTQDVK | GLYTFKKGI | nd / nd / nd / nd / nd / nd | 1 of 18 (2.69) |
| GFDLQEYGIS | VIYSDGVREAYTNSFK | GQIAGTIDL | nd / nd / nd / nd / nd / nd | 0 of 18 |
| GFNINEYGIS | VIYADGQRLSYDDKVK | GDIGGTFND | 0.63 / 0.29 / 0.16 / 0.03 / 0.30 / 0.38 | 0 of 18 |
| GFALDKYGIS | VIYADGSRSVYADDVK | GMLGATFGV | 0.95 / 0.65 / 2.29 / 0.83 / 1.72 / 2.33 | 0 of 18 |
| GEVLDEYGIS | VIYADGQRVQYSDNVK | GLLTGAFDM | nd / nd / nd / nd / nd / nd | 0 of 18 |
| GFGIDEYGIS | VIYADGQRKMYQDNVK | GNVGSLGSV | nd / nd / nd / nd / nd / nd | 0 of 18 |
| GFNLDEYGIS | VIYADGTRTNYLDTVK | GVTGATFIQ | nd / nd / nd / nd / nd / nd | 0 of 18 |
| GFNLNEFGIS | VIYADGHRQAYVPNVK | GHLGGHFDM | nd / nd / nd / nd / nd / nd | 0 of 18 |
| GDGLKEYGIS | VIYADGMRESYVKDVK | GQTGGTFVL | nd / nd / nd / nd / nd / nd | 0 of 18 |
| GFGLMEYGIS | VIYADGMRTSYANSFK | GAHAGTFDE | nd / nd / nd / nd / nd / nd | 0 of 18 |
| GFGLNEYGIS | VIYADGQRKYYADNVK | GHFGEDGVV | nd / nd / nd / nd / nd / nd | 0 of 18 |
| GFSLDEMGIS | VIYADGQRSFYQASVK | GVNSGTFFV | nd / nd / nd / nd / nd / nd | 0 of 18 |
| GFDINEYGIS | VIYADGMRTKYSESVK | GTGDGSFNL | nd / nd / nd / nd / nd / nd | 0 of 18 |
| GFDLEEMGIH | VIYADGIRTAVSNDVK | GNVAGTGDV | 0.39 / 0.46 / 0.24 / 0.56 / 0.25 / 0.23 | 3 of 18 (1.47) |
| GFNLDEYGVS | VIYADGHRTAYVNTVK | GKTGFVLDD | nd / nd / nd / nd / nd / nd | 1 of 18 (2.61) |
| GFDIQEYGIS | VIYADGIRSAYIDNVK | GDTGSQFLE | nd / nd / nd / nd / nd / nd | 0 of 18 |
| GYSLDEYGIS | VIYADGVRQFYADDVK | GGIAGQFNY | 0.16 / 0.59 / 0.32 / 0.55 / 0.14 / 0.31 | 0 of 18 |
| GFNLDEVGIS | VIYADGSRVAYVQNVK | GTVDTVGFV | nd / nd / nd / nd / nd / nd | 0 of 18 |
| GFDIDEYGIS | VIYADGVRTAVDPSFK | GQMAGFFDE | nd / nd / nd / nd / nd / nd | 0 of 18 |
| GQQLDEYGIS | VIYADGVRTSYTNQVK | GEHAGTFMQ | nd / nd / nd / nd / nd / nd | 0 of 18 |
| GFDINEYGIS | VIYADGRRVEYNDKVK | GMLTGTFDQ | nd / nd / nd / nd / nd / nd | 0 of 18 |
| GMALDEYGIS | VIYADGMRTFYSNTVK | GEDGVFYDQ | nd / nd / nd / nd / nd / nd | 0 of 18 |
| GFGMEEYGIS | VIYADGQRNAYADEVK | GENAGSFDI | -0.27 / 0.32 / 0.10 / -0.13 / 0.09 / -0.62 | 0 of 18 |
| GFSLDEYGIS | VIYADGMRQSYCENVK | GVHGCTFGL | nd / nd / nd / nd / nd / nd | 0 of 18 |
| GFDLNEYGIS | VIYADGLRKSYANSVK | NGLRSDFFV | nd / nd / nd / nd / nd / nd | 0 of 18 |
| GRDIEEYGIS | VIYADGLRTVYHDSVK | GQNAGFSIT | nd / nd / nd / nd / nd / nd | 0 of 18 |
| GFNLDEYGIS | VIYADGVRRAVIDNVK | GLVRFDFDL | nd / nd / nd / nd / nd / nd | 0 of 18 |
| GFSIDEYGIS | VIYADGSRQVYQDKVK | GKGTGNFTT | 0.08 / -0.09 / -0.24 / -0.87 / 0.03 / -0.19 | 0 of 18 |
| KFDLEAYGIS | VIYADGVRTAYVDKVK | GQTGGMFDM | 2.44 / nd / 2.21 / 2.66 / 3.04 / 2.18 | 0 of 18 |
| GFDVNEYGIS | VIYADGSRVAIEESVK | GKIAGTFFV | nd / nd / 2.56 / nd / nd / nd | 1 of 18 (2.67) |
| GQSLDEYGIS | VIYADGQRKSYMDSVK | GNGQGTLFD | nd / nd / nd / nd / nd / 1.91 | 0 of 18 |
| GFDINEYGIS | VIYADGVRTHYVDDVK | GKHTGYKMM | nd / nd / nd / nd / nd / nd | 0 of 18 |
| GFALDEYGIS | VIYADGSRSAYTSSVK | GVHNGDINI | nd / nd / nd / nd / nd / nd | 0 of 18 |
| GFNLDEYGIS | VIYADGQRTAYAQHVK | GGGTTDRGI | nd / nd / nd / nd / nd / nd | 0 of 18 |
| GWDLDEYGIS | VIYADGVRTAYQDDVK | GQEAGFLYT | nd / nd / nd / nd / nd / nd | 0 of 18 |
| GFNLMEYGIS | VIYADGTRTAYADTVK | GKYVDTFVD | nd / nd / nd / nd / nd / nd | 0 of 18 |
| GPSLQEYGIS | VIYADGMRTAYTDSVK | GLFGATFLD | nd / nd / nd / nd / nd / nd | 0 of 18 |
| GFDIEEYGIS | VIYADGVRTVYADDVK | GIAKGYSLT | nd / nd / nd / nd / nd / nd | 0 of 18 |
| GADLNEYGIS | VIYADGRSTYYANSFK | GHNAGTFNS | nd / nd / nd / nd / nd / nd | 0 of 18 |
| GFALTEYGIS | VIYADGRRTAYSQSVK | GLNGGIIDV | nd / nd / nd / nd / nd / nd | 1 of 18 (2.36) |
| GFNLMEYGIS | VIYADGTRTAYAGTVK | GKYVDTFVD | nd / nd / nd / nd / nd / nd | 0 of 18 |
| GFNLNEYGIS | VIYADGNRNFYADSVK | GLHANFFDI | nd / nd / nd / nd / nd / nd | 0 of 18 |
| GFNLNEYGIS | VIYADGQRTKYIDDVK | GTNRVLGMG | nd / nd / nd / nd / nd / nd | 0 of 18 |

Extract of 5 entries:

| CDR-H1 | CDR-H2 | CDR-H3 | replicates, log10 nM | signal with controls |
|---|---|---|---|---|
| GFDIEEYGIS | VIYADGVRTVYADDVK | GIAKGYSLT | nd / nd / nd / nd / nd / nd | 0 of 18 |
| GADINEYGIS | VIYADGSRTVYADTVK | GHHGGIFDS | nd / nd / nd / nd / nd / nd | 0 of 18 |
| GFDINEYGIS | VIYADGRRVEYNDKVK | GMLTGTFDQ | nd / nd / nd / nd / nd / nd | 0 of 18 |
| GFNLNEYGIS | VIYADGNRNFYADSVK | GLHANFFDI | nd / nd / nd / nd / nd / nd | 0 of 18 |
| GADLNEYGIS | VIYADGRSTYYANSFK | GHNAGTFNS | nd / nd / nd / nd / nd / nd | 0 of 18 |

The authors averaged sequences with at least three values out of six and counted those with two or fewer as poor binders. Of ten entries with the parent sequence, four were seen in most replicates (averages 0.34 to 2.37), three in one and three in none, so single entries are noisy. Empty control strains, which show no peptide, gave a signal in 1% of pairings with all heavy chain designs; the median was 2.08 and 95% of these signals were weaker than 0.84. No background was subtracted. Also given: how often the same scFv was detected with the empty control strains, with their mean in brackets. Values of this round are not directly comparable with the first-round values of the same sequences.